Measurements: patent publication US6303578A, “Mu-opiate receptor peptides” (Administrators of the Tulane Educational Fund, priority 1999, dated 2001)

Target: δ receptors (Homo sapiens, UniProt P41143)
Assay: biochemical

In the case of `C[C@@H](NC(=O)[C@@H](N)Cc1ccc(O)cc1)C(=O)NCC(=O)N(C)[C@@H](Cc1ccccc1)C(=O)NCCO` [DAMGO, reference compound], the Ki is reported as 190 ± 16 nM.
